# According to US12583836B2 (Anaxis Pharma Pty Ltd, priority 2020, dated 2026):
# Target: T1, MLKL (full length) (Homo sapiens, UniProt Q8NB16)
# T1 construct: purchased DiscoverX (KINOMEscan service); host or cells: E. coli BL21-derived (T7 phage) or HEK293
# T1 sequence (Q8NB16 1-471): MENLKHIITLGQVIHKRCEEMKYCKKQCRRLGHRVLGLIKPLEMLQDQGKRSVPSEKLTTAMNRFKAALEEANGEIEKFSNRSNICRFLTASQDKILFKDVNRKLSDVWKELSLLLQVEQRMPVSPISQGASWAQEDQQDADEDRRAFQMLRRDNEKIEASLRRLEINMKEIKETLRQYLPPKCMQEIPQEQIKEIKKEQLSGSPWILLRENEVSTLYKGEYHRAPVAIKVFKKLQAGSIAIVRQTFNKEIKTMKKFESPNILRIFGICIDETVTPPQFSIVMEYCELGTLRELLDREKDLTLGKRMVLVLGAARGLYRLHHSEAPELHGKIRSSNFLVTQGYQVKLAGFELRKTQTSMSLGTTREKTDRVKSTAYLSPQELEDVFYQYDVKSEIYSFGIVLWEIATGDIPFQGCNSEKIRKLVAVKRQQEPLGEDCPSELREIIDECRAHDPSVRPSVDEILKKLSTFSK
# Experiment: KINOMEscan binding assay, MLKL
# Conditions: equilibrium dissociation constant, class symbols
row,Compound,pKd
1,3-(4-(ethylsulfonamido)-3-((4-fluorobenzyl)oxy)phenyl)-5-((4-(trifluoromethpyridinedin-2-yl)amino)-1H-pyrazole-4-carboxamide [Compound 213],6.00 to 8.00
2,"CCC(Oc1cc(-c2n[nH]c(Nc3cnccn3)c2C(N)=O)ccc1NS(=O)(=O)CC(F)(F)F)c1ccc(F)cc1 (racemic) [Compound 263, 3-(3-(1-(4-fluorophenyl)propoxy)-4-(2,2,2-trifluoroethylsulfonamido)phenyl)-5-(pyrazin-2-ylamino)-1H-pyrazole-4-carboxamide]",> 8.00
3,"CC(Oc1cc(-c2n[nH]c(Nc3cnccn3)c2C(N)=O)ccc1NS(=O)(=O)C(F)F)c1ncco1 (racemic) [Compound 293, 3-(4-((difluoromethyl)sulfonamido)-3-(1-(oxazol-2-yl)ethoxy)phenyl)-5-(pyrazin-2-ylamino)-1H-pyrazole-4-carboxamide]",> 8.00
4,"COC[C@@H](Cc1cc(-c2n[nH]c(Nc3cnccn3)c2C(N)=O)ccc1NS(=O)(=O)C(F)F)c1ccc(F)cc1 (single isomer, unassigned) [Compound 273]",> 8.00
5,"C[C@@H](Oc1cc(-c2n[nH]c(Nc3cnccn3)c2C(N)=O)ccc1NS(=O)(=O)C(F)F)c1ncco1 (single isomer, unassigned) [Compound 280]",> 8.00
6,"CCS(=O)(=O)Nc1ccc(-c2n[nH]c(Nc3cnccn3)c2C(N)=O)cc1OCC1CCN(C(C)=O)CC1 [Compound 7, 3-(3-((1-acetylpiperidin-4-yl)methoxy)-4-(ethylsulfonamido)phenyl)-5-(pyrazin-2-ylamino)-1H-pyrazole-4-carboxamide]",4.52 to 6.00
7,"CCS(=O)(=O)Nc1ccc(-c2n[nH]c(Nc3cccc(C(F)(F)F)n3)c2C(N)=O)cc1OCC(C)C [Compound 12, 3-(4-(ethylsulfonamido)-3-isobutoxyphenyl)-5-((6-(trifluoromethyl)pyridin-2-yl)amino)-1H-pyrazole-4-carboxamide]",6.00 to 8.00
8,"CCS(=O)(=O)Nc1ccc(-c2n[nH]c(Nc3cccc(C(F)(F)F)n3)c2C(N)=O)cc1OCc1ccncc1 [Compound 16, 3-(4-(ethylsulfonamido)-3-(pyridin-4-ylmethoxy)phenyl)-5-((6-(trifluoromethyl)pyridin-2-yl)amino)-1H-pyrazole-4-carboxamide]",6.00 to 8.00
9,"CCS(=O)(=O)Nc1ccc(-c2n[nH]c(Nc3ccccn3)c2C(N)=O)cc1OCc1ccccc1 [Compound 20, 3-(3-(benzyloxy)-4-(ethylsulfonamido)phenyl)-5-(pyridin-2-ylamino)-1H-pyrazole-4-carboxamide]",> 8.00
10,"CCS(=O)(=O)Nc1ccc(-c2n[nH]c(Nc3cnccn3)c2C(N)=O)c(OCc2ccc(F)cc2)c1 [Compound 21, 3-(4-(ethylsulfonamido)-2-((4-fluorobenzyl)oxy)phenyl)-5-(pyrazin-2-ylamino)-1H-pyrazole-4-carboxamide]",> 8.00
11,"CCS(=O)(=O)Nc1ccc(-c2n[nH]c(Nc3cnccn3)c2C(N)=O)cc1OCc1ccncc1 [Compound 28, 3-(4-(ethylsulfonamido)-3-(194yridine-4-ylmethoxy)phenyl)-5-(pyrazin-2-ylamino)-1H-pyrazole-4-carboxamide]",> 8.00
12,"CCS(=O)(=O)Nc1ccc(-c2n[nH]c(Nc3ccccn3)c2C(N)=O)cc1OCc1ccc(F)cc1 [Compound 30, 3-(4-(ethylsulfonamido)-3-((4-fluorobenzyl)oxy)phenyl)-5-(pyridin-2-ylamino)-1H-pyrazole-4-carboxamide]",> 8.00
13,"CCS(=O)(=O)Nc1ccc(-c2n[nH]c(Nc3cnccn3)c2C(N)=O)cc1OCc1cccnc1 [Compound 32, 3-(4-(ethylsulfonamido)-3-(194yridine-3-ylmethoxy)phenyl)-5-(pyrazin-2-ylamino)-1H-pyrazole-4-carboxamide]",> 8.00
14,"CCS(=O)(=O)Nc1ccc(-c2n[nH]c(Nc3ccccn3)c2C(N)=O)cc1OCC(C)C [Compound 37, 3-(4-(ethylsulfonamido)-3-isobutoxyphenyl)-5-(pyridin-2-ylamino)-1H-pyrazole-4-carboxamide]",6.00 to 8.00
15,"CCS(=O)(=O)Nc1ccc(-c2n[nH]c(Nc3cnccn3)c2C(N)=O)cc1OCC1CCCC1 [Compound 40, 3-(3-(cyclopentylmethoxy)-4-(ethylsulfonamido)phenyl)-5-(pyrazin-2-ylamino)-1H-pyrazole-4-carboxamide]",> 8.00
16,"NC(=O)c1c(-c2ccc(NS(=O)(=O)CC(F)(F)F)cc2)n[nH]c1Nc1cccc(C(F)(F)F)n1 [Compound 43, 3-(4-((2,2,2-trifluoroethyl)sulfonamido)phenyl)-5-((6-(trifluoromethyl)pyridin-2-yl)amino)-1H-pyrazole-4-carboxamide]",> 8.00
17,"CCS(=O)(=O)Nc1ccc(-c2n[nH]c(Nc3cnccn3)c2C(N)=O)cc1OCC(C)C [Compound 45, 3-(4-(ethylsulfonamido)-3-isobutoxyphenyl)-5-(pyrazin-2-ylamino)-1H-pyrazole-4-carboxamide]",6.00 to 8.00
18,"CCS(=O)(=O)Nc1ccc(-c2n[nH]c(Nc3cnccn3)c2C(N)=O)cc1OCC1CCCCC1 [Compound 47, 3-(3-(cyclohexylmethoxy)-4-(ethylsulfonamido)pheny)-5-(pyrazin-2-ylamino)-1H-pyrazole-4-carboxamide]",> 8.00
19,"NC(=O)c1c(-c2ccc(NS(=O)(=O)Cc3ccc(Cl)c(Cl)c3)cc2)n[nH]c1Nc1cccc(C(F)(F)F)n1 [Compound 56, 3-(4-((3,4-dichlorophenyl)methylsulfonamido)phenyl)-5-((6-(trifluoromethyl)pyridin-2-yl)amino)-1H-pyrazole-4-carboxamide]",6.00 to 8.00
20,"NC(=O)c1c(-c2ccc(NS(=O)(=O)Cc3cccc(Cl)c3)cc2)n[nH]c1Nc1cccc(C(F)(F)F)n1 [Compound 59, 3-(4-(((3-chlorophenyl)methyl)sulfonamido)phenyl)-5-((6-(trifluoromethyl)pyridin-2-yl)amino)-1H-pyrazole-4-carboxamide]",6.00 to 8.00
21,"NC(=O)c1c(-c2ccc(NS(=O)(=O)C(F)F)cc2)n[nH]c1Nc1cnccn1 [Compound 63, 3-(4-((difluoromethyl)sulfonamido)phenyl)-5-(pyrazin-2-ylamino)-1H-pyrazole-4-carboxamide]",> 8.00
22,"CCS(=O)(=O)Nc1ccc(-c2n[nH]c(Nc3cnc4cc(Cl)ccc4n3)c2C(N)=O)cc1 [Compound 65, 5-((6-chloroquinoxalin-2-yl)amino)-3-(4-(ethylsulfonamido)phenyl)-1H-pyrazole-4-carboxamide]",6.00 to 8.00

# Other lines, results leading:
row,pKd,Compound
1,> 8.00,"COC[C@H](Oc1cc(-c2n[nH]c(Nc3cc(C)on3)c2C(N)=O)ccc1NS(=O)(=O)C(F)F)c1ccc(F)cc1 (single isomer, unassigned) [Compound 299]"
2,4.52 to 6.00,"CCS(=O)(=O)Nc1ccc(-c2n[nH]c(Nc3cccc(C(F)(F)F)n3)c2C(N)=O)cc1OCc1cccc(Cl)c1 [Compound 3, 3-(3-((3-chlorobenzyl)oxy)-4-(ethylsulfonamido)phenyl)-5-((6-(trifluoromethyl)pyridin-2-yl)amino)-1H-pyrazole-4-carboxamide]"
3,6.00 to 8.00,"CCS(=O)(=O)Nc1ccc(-c2n[nH]c(Nc3cccc(C(F)(F)F)n3)c2C(N)=O)cc1OCC1CCCC1 [Compound 10, 3-(3-(cyclopentylmethoxy)-4-(ethylsulfonamido)phenyl)-5-((6-(trifluoromethyl)pyridin-2-yl)amino)-1H-pyrazole-4-carboxamide]"
4,> 8.00,"CCS(=O)(=O)Nc1ccc(-c2n[nH]c(Nc3cnc(OC)cn3)c2C(N)=O)cc1OCc1ccc(F)cc1 [Compound 14, 3-(4-(ethylsulfonamido)-3-((4-fluorobenzyl)oxy)phenyl) 5-((5-methoxypyrazin-2-yl)amino)-1H-pyrazole-4 carboxamide]"
5,> 8.00,"CCS(=O)(=O)Nc1ccc(-c2n[nH]c(Nc3cnccn3)c2C(N)=O)cc1OCc1cccc(F)c1 [Compound 26, 3-(4-(ethylsulfonamido)-3-((3-fluorobenzyl)oxy)phenyl)-5-(pyrazin-2-ylamino)-1H-pyrazole-4-carboxamide]"
6,6.00 to 8.00,"CCS(=O)(=O)Nc1ccc(-c2n[nH]c(Nc3ccccn3)c2C(N)=O)cc1OCC1CCCCC1 [Compound 35, 3-(3-(cyclohexylmethoxy)-4-(ethylsulfonamido)phenyl)-5-(pyridin-2-ylamino)-1H-pyrazole-4-carboxamide]"
7,> 8.00,"CCS(=O)(=O)Nc1ccc(-c2n[nH]c(Nc3cnccn3)c2C(N)=O)cc1OCc1cccc(Cl)c1 [Compound 41, 3-(3-((3-chlorobenzyl)oxy)-4-(ethylsulfonamido)phenyl)-5-(pyrazin-2-ylamino)-1H-pyrazole-4-carboxamide]"
8,> 8.00,"NC(=O)c1c(-c2ccc(NS(=O)(=O)CC(F)F)cc2)n[nH]c1Nc1cccc(C(F)(F)F)n1 [Compound 49, 3-(4-((2,2-difluoroethyl)sulfonamido)phenyl)-5-((6-(trifluoromethyl)pyridin-2-yl)amino)-1H-pyrazole-4-carboxamide]"
9,> 8.00,"NC(=O)c1c(-c2ccc(NS(=O)(=O)C3CC3)cc2)n[nH]c1Nc1cccc(C(F)(F)F)n1 [Compound 52, 3-(4-(cyclopropanesulfonamido)phenyl)-5-((6-(trifluoromethyl)pyridin-2-yl)amino)-1H-pyrazole-4-carboxamide]"
10,> 8.00,"NC(=O)c1c(-c2ccc(NS(=O)(=O)Cc3ccc(Cl)cc3)cc2)n[nH]c1Nc1cnccn1 [Compound 70, 3-(4-(((4-chlorophenyl)methyl)sulfonamido)phenyl)-5-(pyrazin-2-ylamino)-1H-pyrazole-4-carboxamide]"

# pKd: −log10 of the molar value.
